Measurements as given in ChEMBL document CHEMBL1123034 (J Med Chem, 1985).

Target: Neuronal acetylcholine receptor (Rattus norvegicus) (UniProt P04757+P09483+P12389+P12390+P12392+P43144+Q9JLB5+P12391+P43143+P20420+Q05941)

Q: With `CN1CCCC(O)C1` (stereo unspecified) as the molecule, how does the Mean enhancement of binding read?
A: 5.2
